Reference: patent publication US20160024487

Legend:
[1] = tested on: Lys(Dnp)-ATNATDVPRIVGG-Lys(Abz)
[2] = tested on: Lys(Dnp)-ATNATKRPRIVGG-Lys(Abz)
[3] = tested on: Lys(Dnp)-ATNATSEPRIVGG-Lys(Abz)
[4] = tested on: Lys(Dnp)-ATNATRFPRIVGG-Lys(Abz)
[5] = tested on: Lys(Dnp)-ATNATRAPRIVGG-Lys(Abz)
[6] = tested on: Lys(Dnp)-ATNATNLPRIVGG-Lys(Abz)
[7] = tested on: Lys(Dnp)-ATNATHDPRIVGG-Lys(Abz)
[8] = tested on: Lys(Dnp)-ATNATYLPRIVGG-Lys(Abz)
[9] = tested on: Lys(Dnp)-ATNATERPRIVGG-Lys(Abz)
[10] = tested on: Lys(Dnp)-ATNATEYPRIVGG-Lys(Abz)
[11] = tested on: Lys(Dnp)-ATNATEIPRIVGG-Lys(Abz)
[12] = tested on: Lys(Dnp)-ATNATDMPRIVGG-Lys(Abz)
[13] = tested on: Lys(Dnp)-ATNATKGPRIVGG-Lys(Abz)
[14] = tested on: Lys(Dnp)-ATNATYPPRIVGG-Lys(Abz)
[15] = tested on: Lys(Dnp)-ATNATNEPRIVGG-Lys(Abz)
[16] = tested on: Lys(Dnp)-ATNATTLPRIVGG-Lys(Abz)
[17] = tested on: Lys(Dnp)-ATNATRMPRIVGG-Lys(Abz)
[18] = tested on: Lys(Dnp)-ATNATQLPRIVGG-Lys(Abz)
[19] = tested on: Lys(Dnp)-ATNATYTPRIVGG-Lys(Abz)
[20] = tested on: Lys(Dnp)-ATNATSTPRIVGG-Lys(Abz)
[21] = tested on: Lys(Dnp)-ATNATX4X3PRIVGG-Lys(Abz), X4 = E, X3 = A
[22] = tested on: Lys(Dnp)-ATNATSDPRIVGG-Lys(Abz)
[23] = tested on: Lys(Dnp)-ATNATGIPRIVGG-Lys(Abz)
[24] = tested on: Lys(Dnp)-ATNATVDPRIVGG-Lys(Abz)
[25] = tested on: Lys(Dnp)-ATNATNKPRIVGG-Lys(Abz)
[26] = tested on: Lys(Dnp)-ATNATNVPRIVGG-Lys(Abz)
[27] = tested on: Lys(Dnp)-DFLAEGGGVRIVGG-Lys(Abz)
[28] = tested on: Lys(Dnp)-ATNATWQPRIVGG-Lys(Abz)
[29] = tested on: Lys(Dnp)-ATNATAVPRIVGG-Lys(Abz)
[30] = tested on: Lys(Dnp)-ATNATENPRIVGG-Lys(Abz)
[31] = tested on: Lys(Dnp)-ATNATDIPRIVGG-Lys(Abz)
[32] = tested on: Lys(Dnp)-ATNATDKPRIVGG-Lys(Abz)
[33] = tested on: Lys(Dnp)-ATNATPTPRIVGG-Lys(Abz)
[34] = tested on: Lys(Dnp)-ATNATYFPRIVGG-Lys(Abz)
[35] = tested on: Lys(Dnp)-ATNATLAPRIVGG-Lys(Abz)
[36] = tested on: Lys(Dnp)-ATNATAGPRIVGG-Lys(Abz)
[37] = tested on: Lys(Dnp)-ATNATWVPRIVGG-Lys(Abz)
[38] = tested on: Lys(Dnp)-EDQEDQVDPRIVGG-Lys(Abz)
[39] = tested on: Lys(Dnp)-ATNATGQPRIVGG-Lys(Abz)
[40] = tested on: Lys(Dnp)-ATNATARPRIVGG-Lys(Abz)
[41] = tested on: Lys(Dnp)-NRLAAALGIRIVGG-Lys(Abz)
[42] = tested on: Lys(Dnp)-ATNATX4X3PRIVGG-Lys(Abz), X4 = Q, X3 = M
[43] = tested on: Lys(Dnp)-ATNATX4X3PRIVGG-Lys(Abz), X4 = S, X3 = I
[44] = tested on: Lys(Dnp)-ATNATANPRIVGG-Lys(Abz)
[45] = tested on: Lys(Dnp)-ATNATX4X3PRIVGG-Lys(Abz), X4 = Q, X3 = T
[46] = tested on: Lys(Dnp)-ATNATTGPRIVGG-Lys(Abz)
[47] = tested on: Lys(Dnp)-ATNATPHPRIVGG-Lys(Abz)

Substance: Human plasma purified alpha-thrombin
- FIIa kcat/KM [1]: 460 M⁻¹ s⁻¹
- Specificity Ratio (FIIa/FXa) [1]: 30
- FIIa kcat/KM [2]: 780 M⁻¹ s⁻¹
- Specificity Ratio (FIIa/FXa) [2]: 9
- FIIa kcat/KM [3]: 390 M⁻¹ s⁻¹
- Specificity Ratio (FIIa/FXa) [3]: 17
- FIIa kcat/KM [4]: 770 M⁻¹ s⁻¹
- Specificity Ratio (FIIa/FXa) [4]: 1
- FIIa kcat/KM [5]: 670 M⁻¹ s⁻¹
- FIIa kcat/KM [6]: 650 M⁻¹ s⁻¹
- Specificity Ratio (FIIa/FXa) [6]: 6
- FIIa kcat/KM [7]: 490 M⁻¹ s⁻¹
- Specificity Ratio (FIIa/FXa) [7]: 6
- FIIa kcat/KM [8]: 2100 M⁻¹ s⁻¹
- Specificity Ratio (FIIa/FXa) [8]: 6
- FIIa kcat/KM [9]: 1100 M⁻¹ s⁻¹
- Specificity Ratio (FIIa/FXa) [9]: 4
- FIIa kcat/KM [10]: 430 M⁻¹ s⁻¹
- Specificity Ratio (FIIa/FXa) [10]: 29
- FIIa kcat/KM [11]: 460 M⁻¹ s⁻¹
- Specificity Ratio (FIIa/FXa) [11]: 8
- FIIa kcat/KM [12]: 140 M⁻¹ s⁻¹
- Specificity Ratio (FIIa/FXa) [12]: 12
- FIIa kcat/KM [13]: 460 M⁻¹ s⁻¹
- Specificity Ratio (FIIa/FXa) [13]: 14
- FIIa kcat/KM [14]: 380 M⁻¹ s⁻¹
- Specificity Ratio (FIIa/FXa) [14]: 19
- FIIa kcat/KM [15]: 150 M⁻¹ s⁻¹
- Specificity Ratio (FIIa/FXa) [15]: 7
- FIIa kcat/KM [16]: 750 M⁻¹ s⁻¹
- Specificity Ratio (FIIa/FXa) [16]: 6
- FIIa kcat/KM [17]: 790 M⁻¹ s⁻¹

Substance: Human plasma purified α-thrombin
- kcat/KM [18]: 3500 M⁻¹ s⁻¹
- FIIa kcat/KM [19]: 7500 M⁻¹ s⁻¹
- Functional Selectivity (Specificity*FIIa kcat/KM) [19]: 2e+06
- kcat/KM [19]: 7500 M⁻¹ s⁻¹
- kcat/KM [20]: 1400 M⁻¹ s⁻¹
- kcat/KM [1]: 460 M⁻¹ s⁻¹
- kcat/KM [2]: 780 M⁻¹ s⁻¹
- FIIa kcat/KM [21]: 400 M⁻¹ s⁻¹
- Specificity Ratio (FIIa/FXa) [21]: 92
- kcat/KM [22]: 740 M⁻¹ s⁻¹
- kcat/KM [3]: 390 M⁻¹ s⁻¹
- kcat/KM [23]: 1300 M⁻¹ s⁻¹
- kcat/KM [4]: 770 M⁻¹ s⁻¹
- kcat/KM [5]: 670 M⁻¹ s⁻¹
- kcat/KM [6]: 650 M⁻¹ s⁻¹
- kcat/KM [24]: 1100 M⁻¹ s⁻¹
- kcat/KM [25]: 750 M⁻¹ s⁻¹
- kcat/KM [7]: 490 M⁻¹ s⁻¹
- kcat/KM [26]: 550 M⁻¹ s⁻¹
- kcat/KM [8]: 2100 M⁻¹ s⁻¹
- FIIa kcat/KM [27]: 410 M⁻¹ s⁻¹
- Functional Selectivity (Specificity*FIIa kcat/KM) [27]: 49000
- Specificity Ratio (FIIa/FXa) [27]: 121
- kcat/KM [27]: 410 M⁻¹ s⁻¹
- FIIa kcat/KM [28]: 19000 M⁻¹ s⁻¹
- Functional Selectivity (Specificity*FIIa kcat/KM) [28]: 9.8e+06
- kcat/KM [28]: 19000 M⁻¹ s⁻¹
- kcat/KM [9]: 1100 M⁻¹ s⁻¹
- Functional Selectivity (Specificity*FIIa kcat/KM) [29]: 2.2e+06
- FIIa kcat/KM [30]: 17 M⁻¹ s⁻¹
- Functional Selectivity (Specificity*FIIa kcat/KM) [30]: 88
- Specificity Ratio (FIIa/FXa) [30]: 5
- kcat/KM [30]: 17 M⁻¹ s⁻¹
- FIIa kcat/KM [31]: 30 M⁻¹ s⁻¹
- Functional Selectivity (Specificity*FIIa kcat/KM) [31]: 22
- Specificity Ratio (FIIa/FXa) [31]: 1
- FIIa kcat/KM [32]: 10 M⁻¹ s⁻¹
- Functional Selectivity (Specificity*FIIa kcat/KM) [32]: 9.9
- Specificity Ratio (FIIa/FXa) [32]: 1
- FIIa kcat/KM [33]: 22000 M⁻¹ s⁻¹
- Specificity Ratio (FIIa/FXa) [33]: 26
- kcat/KM [33]: 22000 M⁻¹ s⁻¹
- FIIa kcat/KM [34]: 2600 M⁻¹ s⁻¹
- Specificity Ratio (FIIa/FXa) [34]: 77
- kcat/KM [34]: 2600 M⁻¹ s⁻¹
- kcat/KM [10]: 430 M⁻¹ s⁻¹
- FIIa kcat/KM [35]: 13000 M⁻¹ s⁻¹
- Functional Selectivity (Specificity*FIIa kcat/KM) [35]: 750000
- kcat/KM [35]: 13000 M⁻¹ s⁻¹
- FIIa kcat/KM [36]: 3400 M⁻¹ s⁻¹
- Functional Selectivity (Specificity*FIIa kcat/KM) [36]: 810000
- kcat/KM [36]: 3400 M⁻¹ s⁻¹
- kcat/KM [11]: 460 M⁻¹ s⁻¹
- kcat/KM [12]: 140 M⁻¹ s⁻¹
- kcat/KM [13]: 460 M⁻¹ s⁻¹
- FIIa kcat/KM [37]: 3900 M⁻¹ s⁻¹
- Specificity Ratio (FIIa/FXa) [37]: 46
- kcat/KM [37]: 3900 M⁻¹ s⁻¹
- FIIa kcat/KM [38]: 1800 M⁻¹ s⁻¹
- Functional Selectivity (Specificity*FIIa kcat/KM) [38]: 240000
- Specificity Ratio (FIIa/FXa) [38]: 133
- kcat/KM [38]: 1800 M⁻¹ s⁻¹
- kcat/KM [39]: 1400 M⁻¹ s⁻¹
- Functional Selectivity (Specificity*FIIa kcat/KM) [40]: 1.1e+06
- FIIa kcat/KM [41]: 720 M⁻¹ s⁻¹
- Functional Selectivity (Specificity*FIIa kcat/KM) [41]: 1500
- Specificity Ratio (FIIa/FXa) [41]: 2
- kcat/KM [41]: 720 M⁻¹ s⁻¹
- FIIa kcat/KM [42]: 8100 M⁻¹ s⁻¹
- Specificity Ratio (FIIa/FXa) [42]: 4
- kcat/KM [14]: 380 M⁻¹ s⁻¹
- FIIa kcat/KM [43]: 1100 M⁻¹ s⁻¹
- Specificity Ratio (FIIa/FXa) [43]: 19
- kcat/KM [15]: 150 M⁻¹ s⁻¹
- FIIa kcat/KM [44]: 4000 M⁻¹ s⁻¹
- Specificity Ratio (FIIa/FXa) [44]: 51
- FIIa kcat/KM [45]: 7400 M⁻¹ s⁻¹
- Specificity Ratio (FIIa/FXa) [45]: 8
- kcat/KM [46]: 770 M⁻¹ s⁻¹
- kcat/KM [16]: 750 M⁻¹ s⁻¹
- FIIa kcat/KM [47]: 15000 M⁻¹ s⁻¹
- Specificity Ratio (FIIa/FXa) [47]: 41
- kcat/KM [47]: 15000 M⁻¹ s⁻¹
- kcat/KM [17]: 790 M⁻¹ s⁻¹
